{"sequences": {"note": "Amino acid sequences for entries named in this document (tags omitted). A change or cut given only in a name is not applied to a line headed by its entry.", "UniProt O75608": "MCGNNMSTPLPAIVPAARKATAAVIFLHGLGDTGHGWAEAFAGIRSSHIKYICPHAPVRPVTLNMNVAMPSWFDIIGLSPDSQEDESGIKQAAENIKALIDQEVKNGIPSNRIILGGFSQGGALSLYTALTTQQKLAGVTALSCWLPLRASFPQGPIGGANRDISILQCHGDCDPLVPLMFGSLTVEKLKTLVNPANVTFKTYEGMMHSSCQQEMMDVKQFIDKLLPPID"}, "source": "PubChem BioAssay AID2174", "about": "(The Scripps Research Institute Molecular Screening Center, 2009)", "note": "The entries are a selection whose mix differs from that of the whole data set. Active and inactive are the calls of the source.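 The calls were made as follows: active = inhibition above the mean of all tested compounds plus 3 SD, set per campaign (cut at about 14% in these data); inactive = the rest.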"}
{"target": "Acyl-protein thioesterase 1 (Homo sapiens) (UniProt O75608)", "assay": "LYPLA1 inhibitors, primary screen, counter-screen for PME1 inhibitor project, biochemical, fluorescence polarization, FP-Rh probe ABPP (AID 2174);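 also: inhibitors block serine hydrolase probe labeling of LYPLA1 so polarization falls; 0% = enzyme with DMSO and 100% = wells lacking LYPLA1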", "conditions": "recombinant LYPLA1, FP-Rh probe fluorescence polarization; at 5.9 µM; hits give high values"}
{"smiles": "c1ccc(-c2nn[nH]n2)c(-c2nn[nH]n2)c1", "inhibition": "inactive: -2.84%"}
{"smiles": "CN(C)C(=O)Oc1noc2ccccc12", "inhibition": "inactive: -4.29%"}
{"smiles": "Cc1ccccc1OP(=O)(Nc1ccccn1)Oc1ccccc1C", "inhibition": "inactive: -0.74%"}
{"smiles": "Cc1ccc(OP(=O)(Nc2ccccn2)Oc2ccc(C)cc2)cc1", "inhibition": "inactive: 1.75%"}
{"smiles": "CC(=O)NC(SC(=S)N(CC(C)C)CC(C)C)C(Cl)(Cl)Cl", "note": "(stereo not given)", "inhibition": "inactive: 2.93%"}
{"smiles": "COC(=O)c1cc2c(s1)N=C(c1ccccc1)N(C)P2(=O)N1CCOCC1", "note": "(stereo not given)", "inhibition": "inactive: 1.12%"}
{"smiles": "CCC(=O)N1C2C3N(C(=O)CC)C1C1N(C(=O)CC)C(C(N1C(=O)CC)N3C(=O)CC)N2C(=O)CC", "inhibition": "inactive: -3.38%"}
{"smiles": "O=C(OC1CN2CCC1CC2)c1ccccc1", "note": "(stereo not given)", "inhibition": "inactive: -2.01%"}
{"smiles": "CN(C(=O)Cc1ccc(Cl)c(Cl)c1)[C@H]1CCCC[C@@H]1N1CCCC1", "inhibition": "inactive: -3.93%"}
{"smiles": "Cc1ccc(NP(=O)(Oc2ccccc2F)Oc2ccccc2F)nc1", "inhibition": "inactive: -1.15%"}
{"smiles": "Cc1cc(SC(NC(=O)c2ccc(F)cc2)C(Cl)(Cl)Cl)ncn1", "note": "(stereo not given)", "inhibition": "inactive: -4.62%"}
{"smiles": "CCOP(=O)(Nc1ccccc1)OCC", "inhibition": "inactive: 0.31%"}
{"smiles": "CC(=O)Nc1ccc([As](=O)(O)O)cc1", "inhibition": "inactive: 4.82%"}
{"smiles": "O=C(O)c1ccccc1[As](=O)(O)O", "inhibition": "inactive: 3.03%"}
{"smiles": "O=P(Nc1nc2ccc(Cl)cc2s1)(c1ccccc1)c1ccccc1", "inhibition": "inactive: -1.7%"}
{"smiles": "CCN(N=Nc1nonc1N)c1nonc1N", "inhibition": "inactive: -2.26%"}
{"smiles": "O=[N+]([O-])c1cc([N+](=O)[O-])c(CCN2CCOCC2)c([N+](=O)[O-])c1", "inhibition": "inactive: 1.03%"}
{"smiles": "Cc1ccc(OP(=O)(Nc2nccs2)Oc2ccc(C)cc2)cc1", "inhibition": "inactive: -3.48%"}
{"smiles": "COc1ccccc1OP(=O)(Nc1ccc(C)cn1)Oc1ccccc1OC", "inhibition": "inactive: 2.05%"}
{"smiles": "CN1CCCC(OC(=O)C(c2ccccc2)c2ccccc2)C1", "note": "(stereo not given)", "inhibition": "inactive: -5.51%"}
{"smiles": "Clc1ccc(Cl)c(NC2=NCC(CBr)S2)c1", "note": "(stereo not given)", "inhibition": "inactive: -4.16%"}
{"smiles": "NC(=O)c1cc([N+](=O)[O-])cc([N+](=O)[O-])c1N", "inhibition": "inactive: -1.04%"}
{"smiles": "Cc1ccc(N/C(=N/P(=O)(N2CCOCC2)N2CCOCC2)N2CCOCC2)cc1", "inhibition": "inactive: 0.16%"}
{"smiles": "CN(C(=O)Cc1ccc(Cl)c(Cl)c1)[C@H]1CCCC[C@H]1N1CCCC1", "inhibition": "inactive: 0.21%"}
{"smiles": "Nc1cc(N)c2nonc2c1[N+](=O)[O-]", "inhibition": "inactive: 1.51%"}
{"smiles": "CC(C)CC(=O)NC(Sc1ccc(Cl)cc1)C(Cl)(Cl)Cl", "note": "(stereo not given)", "inhibition": "inactive: -3.71%"}
{"smiles": "O=C(NC(Sc1ccncn1)C(Cl)(Cl)Cl)c1ccccc1", "note": "(stereo not given)", "inhibition": "inactive: 1.13%"}
{"smiles": "Cc1c2non([O-])c-2c(C)[n+](=O)[n+]1[O-]", "inhibition": "inactive: 0.78%"}
{"smiles": "Oc1ccccc1CNc1ccccn1", "inhibition": "inactive: 2.45%"}
{"smiles": "CC(=O)N1C2C3N(C(C)=O)C1C1N(C(C)=O)C(C(N1C(C)=O)N3C(C)=O)N2C(C)=O", "inhibition": "inactive: 8.07%"}
{"smiles": "O=[N+]([O-])c1cccc2n[nH]nc12", "inhibition": "inactive: 5.3%"}
{"smiles": "O=[N+]([O-])c1cc([N+](=O)[O-])c(CCNc2ccccc2)c([N+](=O)[O-])c1", "inhibition": "inactive: 0.49%"}
{"smiles": "CCc1nc2c(n1)c1c(non1O)c1c2no[n+]1[O-]", "inhibition": "inactive: 1.31%"}
{"smiles": "Cc1ccc(NP(=O)(Oc2ccccc2)Oc2ccccc2)nc1", "inhibition": "inactive: 0.02%"}
{"smiles": "COc1ccc(C2=NCC(CBr)S2)cc1", "note": "(stereo not given)", "inhibition": "inactive: 1.83%"}
{"smiles": "CN(C)C(=O)OCCc1n(C)cc[n+]1C", "inhibition": "inactive: -4.18%"}
{"smiles": "CC(C)=N/N=C(\\N)N[N+](=O)[O-]", "inhibition": "inactive: 0.29%"}
{"smiles": "CC1CCN(C(=O)Oc2c(Cl)cc(Cl)c3cccnc23)CC1", "inhibition": "inactive: -0.33%"}
{"smiles": "C[N+]1=C2C=CC=CC=C2SC12C([N+](=O)[O-])=CC([N+](=O)[O-])=C[C-]2[N+](=O)[O-]", "note": "(stereo not given)", "inhibition": "inactive: -4.39%"}
{"smiles": "Nc1ccc([As](=O)(O)c2ccc(N)cc2)cc1", "inhibition": "inactive: 3.08%"}
{"smiles": "CCN(/C(=N/P(=O)(N1CCOCC1)N1CCOCC1)N1CCOCC1)c1ccc(OC)cc1", "inhibition": "inactive: 0.68%"}
{"smiles": "O=C(Nc1cc([As](=O)(O)O)ccc1O)c1ccccc1", "inhibition": "inactive: -1.25%"}
{"smiles": "O=[N+]([O-])c1cccc(NC2=NCC(CBr)S2)c1", "note": "(stereo not given)", "inhibition": "inactive: -1.1%"}
{"smiles": "CC(C)(C)C(=O)NC(Sc1ccncn1)C(Cl)(Cl)Cl", "note": "(stereo not given)", "inhibition": "inactive: -0.81%"}
{"smiles": "O=[N+]([O-])c1ncn(CCn2ncnc2[N+](=O)[O-])n1", "inhibition": "inactive: -6.53%"}
